The list shows a part of the results, in another mix than the full data. Active and inactive are the calls of the source.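 Rule for the calls: active = activation above a cutoff set at the mean over all compounds plus 3 SD (cut at about 18% in these data); inactive = the rest.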

Sequences of proteins named here, by UniProt entry; tags and fusion partners are left off.
UniProt P31323, whole entry, looked up: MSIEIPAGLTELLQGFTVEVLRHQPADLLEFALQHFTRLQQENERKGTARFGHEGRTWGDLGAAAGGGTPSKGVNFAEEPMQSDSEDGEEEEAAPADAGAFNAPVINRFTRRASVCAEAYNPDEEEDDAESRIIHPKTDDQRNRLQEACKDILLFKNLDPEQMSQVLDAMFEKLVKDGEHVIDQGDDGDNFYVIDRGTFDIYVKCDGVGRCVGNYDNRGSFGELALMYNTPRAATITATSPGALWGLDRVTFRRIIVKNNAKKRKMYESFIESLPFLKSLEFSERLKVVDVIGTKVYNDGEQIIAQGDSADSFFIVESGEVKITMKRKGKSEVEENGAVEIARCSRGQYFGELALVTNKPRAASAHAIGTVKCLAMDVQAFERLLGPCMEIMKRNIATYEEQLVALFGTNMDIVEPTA

101 compounds from PubChem BioAssay AID504700 (The Scripps Research Institute Molecular Screening Center, 2011) can be followed below.

The target in this test is cAMP-dependent protein kinase catalytic subunit beta (Homo sapiens) + cAMP-dependent protein kinase type II-beta regulatory subunit (Homo sapiens) (UniProt P22694+P31323). Nature of the test: compounds dissociating PKAc from R2B subunit – biochemical, fluorescence polarization, Cy5-IP20, human, primary screen (AID 504700). As to conditions: PKA-R2B holoenzyme dissociation, at 11.4 µM, stronger effect = higher value, 0% DMSO only, 100% 113 µM cGMP, R2B truncated from residue 108, S112A mutant. For orientation: Fluorescence polarisation rises when a labelled molecule tumbles more slowly, as on binding a larger partner.
Take `O=P(Nc1ccccn1)(c1ccc(Br)cc1)c1ccc(Br)cc1`: the activation is inactive: -5.33%.

For `CN(C)C1(CNC(=O)c2ccc(Cl)c(S(N)(=O)=O)c2)CCCCC1`, the activation is inactive: -6.86%.

For the compound `COc1ccc(N)c([N+](=O)[O-])c1[N+](=O)[O-]`, the activation was inactive: -0.7%.

Regarding `O=P(Nc1nc2ccccc2s1)(c1ccccc1)c1ccccc1`, the activation is inactive: -1.55%.

With `C[C@H]1OP(=O)(Oc2ccccc2)[C@H](O)[C@H](O)[C@H]1N=[N+]=[N-]` (stereo partly specified), the activation is inactive: -2.09%.

For `O=[As](O)(c1ccccc1)c1ccc(O)cc1`, the activation was inactive: -6.78%.

With `O=[N+]([O-])c1ccc(O)c(/C=N/Nc2ccc([N+](=O)[O-])cc2[N+](=O)[O-])c1`, the activation was inactive: -9.25%.

On to `CC(=O)NC(SC(=S)N(C)C)C(Cl)(Cl)Cl` (stereo unspecified), for which the activation was inactive: 2.26%.

As for `O=[N+]([O-])c1ncn(CCn2cnc([N+](=O)[O-])n2)n1`, the activation is inactive: -8.62%.

For the compound `O=C(OC1CN2CCC1CC2)c1cccc(Cl)c1` (stereo unspecified), the activation is inactive: 4.13%.

`Nc1ccc([As](=O)(O)c2ccc([N+](=O)[O-])cc2)cc1`: the activation was inactive: -4.82%.

`C(Cc1nn[nH]n1)Cc1nn[nH]n1`: the activation is inactive: -5.63%.

In the case of `CC(C)C(=O)NC(Sc1ccccc1)C(Cl)(Cl)Cl` (stereo unspecified), the activation is inactive: -9.44%.

With `O=P(Nc1nccs1)(c1ccccc1)c1ccccc1`, the activation is inactive: 10.9%.

Regarding `c1nnnn1CCn1cnnn1`, the activation was active: 18.6%.

On to `O=P1(Nc2nc3ccc(Cl)cc3s2)COc2ccccc2O1` (stereo unspecified), for which the activation is inactive: 2.42%.

As for `CCOc1ccc(C2=NCC(CBr)S2)cc1` (stereo unspecified), the activation was inactive: 2.38%.

On to `CC(C)(C)C(=O)NC(Sc1ccccc1)C(Cl)(Cl)Cl` (stereo unspecified), for which the activation is inactive: 8.06%.

Take `CCc1cc(O)c([N+](=O)[O-])c(C)c1[N+](=O)[O-]`: the activation is inactive: -5.87%.

In the case of `Cc1ccccc1CN(C)C(=O)COC(=O)C(O)(c1ccccc1)c1ccccc1`, the activation was inactive: -1.72%.

Turning to `C[C@@H]1C=CCP(=O)(Oc2ccccc2)O1` (stereo partly specified), the activation was inactive: -10.3%.

Regarding `C[C@H]1OP(=O)(Oc2ccccc2)C[C@@H]2O[C@@H]21` (stereo partly specified), the activation is inactive: -2.15%.

Turning to `N#C/C(=C\c1ccc(N(CCBr)CCBr)cc1)C(N)=O`, the activation was inactive: 2.5%.

On to `CC(=O)c1ccc(N2CC2c2ccncc2)cc1` (stereo unspecified), for which the activation is inactive: -1.06%.

Take `COC(=O)C1(C)COP(=O)(NCc2ccccc2)OC1` (stereo unspecified): the activation was inactive: 2.82%.

`CC(=O)Nc1ccc([As](=O)(O)O)c(O)c1`: the activation was inactive: -1.66%.

For `CC(=O)Nc1ccc(Oc2c([N+](=O)[O-])cc([N+](=O)[O-])cc2[N+](=O)[O-])cc1`, the activation was inactive: -4.81%.

In the case of `CCNC(=S)/N=C(\N)N[N+](=O)[O-]`, the activation was inactive: -2.39%.

Take `O=C(NC1CCS(=O)(=O)C1)NP(=S)(Oc1ccccc1)Oc1ccccc1` (stereo unspecified): the activation was inactive: -5.61%.

As to `O=P1(N(CCCl)CCCl)OCCC2CCCCN21` (stereo unspecified), the activation is inactive: -14.2%.

Consider `O=C(OC1CN2CCC1CC2)c1ccccc1` (stereo unspecified), for which the activation is inactive: -7.53%.

For the compound `CCC(=O)N1C2C3N(C(=O)CC)C1C1N(C(=O)CC)C(C(N1C(=O)CC)N3C(=O)CC)N2C(=O)CC`, the activation is inactive: 2.63%.

As to `COC(=O)c1cc2c(s1)N=C(c1ccccc1)N(C)P2(=O)N1CCOCC1` (stereo unspecified), the activation was inactive: 3.19%.

Take `CC(=O)NC(SC(=S)N(CC(C)C)CC(C)C)C(Cl)(Cl)Cl` (stereo unspecified): the activation was inactive: -7.89%.

For the compound `Cc1ccc(OP(=O)(Nc2ccccn2)Oc2ccc(C)cc2)cc1`, the activation was inactive: -1.24%.

Turning to `Cc1ccccc1OP(=O)(Nc1ccccn1)Oc1ccccc1C`, the activation was inactive: -7.47%.

Take `CC(NC(=O)COC(=O)C(O)(c1ccccc1)c1ccccc1)c1ccccc1` (stereo unspecified): the activation is inactive: 5.71%.

With `CN(C)C(=O)Oc1noc2ccccc12`, the activation is inactive: 1.35%.

For the compound `O=c1c2cc([N+](=O)[O-])ccc2[nH]c2c([N+](=O)[O-])cc([N+](=O)[O-])cc12`, the activation was inactive: -6.37%.

Take `CN(C)P(=O)(N(C)C)n1c(Nc2ccccc2)nnc1-c1ccccc1`: the activation is inactive: -2.1%.

Consider `O=P(Nc1nc2ccc(Cl)cc2s1)(c1ccccc1)c1ccccc1`, for which the activation is inactive: 2.52%.

As for `O=C(O)c1ccccc1[As](=O)(O)O`, the activation was inactive: -1.59%.

On to `CC(=O)Nc1ccc([As](=O)(O)O)cc1`, for which the activation was inactive: -13.8%.

In the case of `CCCC1OP(N)(=O)OCC1CC` (stereo unspecified), the activation was inactive: 1.42%.

In the case of `CCOP(=O)(Nc1ccccc1)OCC`, the activation is inactive: -4.28%.

As to `Cc1cc(SC(NC(=O)c2ccc(F)cc2)C(Cl)(Cl)Cl)ncn1` (stereo unspecified), the activation was inactive: -4.83%.

Turning to `Cc1ccc(NP(=O)(Oc2ccccc2F)Oc2ccccc2F)nc1`, the activation is inactive: -7.9%.

Regarding `CN(C(=O)Cc1ccc(Cl)c(Cl)c1)[C@H]1CCCC[C@@H]1N1CCCC1`, the activation was inactive: 10.2%.

On to `Nc1cccc2ccc([As](=O)(O)O)cc12`, for which the activation was inactive: -11%.

Consider `CCN(N=Nc1nonc1N)c1nonc1N`, for which the activation is inactive: -3.24%.

With `CN(C(=O)Cc1ccc(Cl)c(Cl)c1)[C@H]1CCCC[C@H]1N1CCCC1`, the activation was inactive: -1.74%.

Take `Cc1ccc(N/C(=N/P(=O)(N2CCOCC2)N2CCOCC2)N2CCOCC2)cc1`: the activation is inactive: -6.97%.

As to `NC(=O)c1cc([N+](=O)[O-])cc([N+](=O)[O-])c1N`, the activation is inactive: -3.72%.

In the case of `Clc1ccc(Cl)c(NC2=NCC(CBr)S2)c1` (stereo unspecified), the activation is inactive: -5.33%.

On to `CN1CCCC(OC(=O)C(c2ccccc2)c2ccccc2)C1` (stereo unspecified), for which the activation was inactive: 4.83%.

As for `COc1ccccc1OP(=O)(Nc1ccc(C)cn1)Oc1ccccc1OC`, the activation was inactive: -3.1%.

Turning to `Oc1ccccc1CNc1ccccn1`, the activation was inactive: -15.9%.

As for `O=C(NC(Sc1ccncn1)C(Cl)(Cl)Cl)c1ccccc1` (stereo unspecified), the activation is inactive: 2.21%.

Turning to `CC(C)CC(=O)NC(Sc1ccc(Cl)cc1)C(Cl)(Cl)Cl` (stereo unspecified), the activation is inactive: -8.49%.

As for `Nc1cc(N)c2nonc2c1[N+](=O)[O-]`, the activation was inactive: -0.59%.

For `COc1ccc(C2=NCC(CBr)S2)cc1` (stereo unspecified), the activation is inactive: -2.86%.

Take `Cc1ccc(NP(=O)(Oc2ccccc2)Oc2ccccc2)nc1`: the activation is inactive: -7.81%.

With `CCc1nc2c(n1)c1c(non1O)c1c2no[n+]1[O-]`, the activation is inactive: 8.88%.

In the case of `O=[N+]([O-])c1cc([N+](=O)[O-])c(CCNc2ccccc2)c([N+](=O)[O-])c1`, the activation was inactive: 11.2%.

Consider `O=[N+]([O-])c1cccc2n[nH]nc12`, for which the activation is inactive: -5.57%.

Take `CC(=O)N1C2C3N(C(C)=O)C1C1N(C(C)=O)C(C(N1C(C)=O)N3C(C)=O)N2C(C)=O`: the activation is inactive: -2.01%.

As to `CCN(/C(=N/P(=O)(N1CCOCC1)N1CCOCC1)N1CCOCC1)c1ccc(OC)cc1`, the activation was inactive: -4.89%.

With `Nc1ccc([As](=O)(O)c2ccc(N)cc2)cc1`, the activation is inactive: 11.5%.

For the compound `C[N+]1=C2C=CC=CC=C2SC12C([N+](=O)[O-])=CC([N+](=O)[O-])=C[C-]2[N+](=O)[O-]` (stereo unspecified), the activation was inactive: 3.22%.

As to `c1cc(-c2nn[nH]n2)ccc1-c1nn[nH]n1`, the activation is inactive: -11%.

As for `CC1CCN(C(=O)Oc2c(Cl)cc(Cl)c3cccnc23)CC1`, the activation is inactive: 1.08%.

With `CC(C)=N/N=C(\N)N[N+](=O)[O-]`, the activation is inactive: 9.53%.

With `CC(C)c1nc(Nc2ccccc2)n(P(=O)(N(C)C)N(C)C)n1`, the activation is inactive: 3.32%.

Take `CN(C)C(=O)OCCc1n(C)cc[n+]1C`: the activation is inactive: -2.34%.

Consider `O=P1(N(CCCl)CCCl)OCCCS1` (stereo unspecified), for which the activation was inactive: -8.3%.

In the case of `O=C(Nc1cc([As](=O)(O)O)ccc1O)c1ccccc1`, the activation was inactive: 0.21%.

Take `O=[N+]([O-])c1ncn(CCn2ncnc2[N+](=O)[O-])n1`: the activation is inactive: 7.44%.

On to `CC(C)(C)C(=O)NC(Sc1ccncn1)C(Cl)(Cl)Cl` (stereo unspecified), for which the activation is inactive: -6.73%.

As for `O=C(O)CNc1ccc([As](=O)(O)O)cc1`, the activation is inactive: -0.17%.

As to `O=[N+]([O-])c1cccc(NC2=NCC(CBr)S2)c1` (stereo unspecified), the activation is inactive: 4.97%.

In the case of `COC(=O)C1(C)COP(=O)(Nc2ccccc2)OC1` (stereo unspecified), the activation was inactive: 5.57%.

As for `CCOC(=O)Nc1ccc([As](=O)(O)O)c(O)c1`, the activation was inactive: 5.03%.

For the compound `O=C(O)C(O)c1ccc(N(CCCl)CCCl)cc1` (stereo unspecified), the activation is inactive: 1.01%.

For the compound `CC1CCNP(=O)(N(CCCl)CCCl)O1` (stereo unspecified), the activation is inactive: -5.64%.

In the case of `COP(=O)(OC)N1CC1c1ccccc1` (stereo unspecified), the activation was inactive: 5.8%.

In the case of `CCCCOc1ccc(C(=O)NCC2(N3CCCCC3)CCCCC2)cc1OC`, the activation is inactive: -0.51%.

With `Cc1cc(SC(NC(=O)c2ccccc2)C(Cl)(Cl)Cl)nc(C(C)C)n1` (stereo unspecified), the activation was inactive: 4.18%.

For `CCOC(=O)Nc1cccc([As](=O)(O)O)c1`, the activation was inactive: 7.2%.

As to `O=P(Nc1ccccn1)(c1cccc2ccccc12)c1cccc2ccccc12`, the activation was inactive: -6.79%.

Regarding `Cc1cc(SC(NC=O)C(Cl)(Cl)Cl)ncn1` (stereo unspecified), the activation was inactive: -5.66%.

Regarding `O=[N+]([O-])c1ccc(Nc2ccc(Oc3ccc([N+](=O)[O-])cc3[N+](=O)[O-])cc2)c([N+](=O)[O-])c1`, the activation is inactive: -0.63%.

With `COP1(=S)c2c(C)nn(CCC#N)c2N=C(c2ccc(F)cc2)N1C` (stereo unspecified), the activation was inactive: 8.14%.

Turning to `O=C(O)C(=O)c1ccc(N(CCCl)CCCl)cc1`, the activation was inactive: -4%.

Take `O=C(COc1ccccc1)OC1CN2CCC1CC2` (stereo unspecified): the activation was inactive: 2.75%.

On to `O=C(Nc1ccncc1[N+](=O)[O-])c1ccc([N+](=O)[O-])cc1[N+](=O)[O-]`, for which the activation is inactive: 3.4%.

As for `O=C(OC1CN2CCC1CC2)c1cccc([N+](=O)[O-])c1` (stereo unspecified), the activation is inactive: -5.31%.

In the case of `CSc1ccc(Nc2c([N+](=O)[O-])cc([N+](=O)[O-])cc2[N+](=O)[O-])cc1`, the activation is inactive: 5.47%.

`CCOC(=O)c1ccc(NC(=O)C(C)(CCl)SC)cc1` (stereo unspecified): the activation was inactive: 5.97%.

For the compound `CCC(C)N(CC(C)C)C(=S)SC(NC(C)=O)C(Cl)(Cl)Cl` (stereo unspecified), the activation was inactive: -1.68%.

Turning to `Cc1c2c(nc3ccccc13)SC(C(Cl)Cl)C2` (stereo unspecified), the activation was inactive: 5.98%.

For the compound `O=C(OC1CN2CCC1CC2)C12CC3CC(CC(C3)C1)C2` (stereo unspecified), the activation is inactive: -5.11%.
